The text below walks through data of PubChem BioAssay.

Protein sequences, listed by entry. Tags and fused reporters are not part of them. Lines headed by an entry give the natural chain unless they say otherwise; changes in a name come on top.
UniProt P98170, whole entry, looked up: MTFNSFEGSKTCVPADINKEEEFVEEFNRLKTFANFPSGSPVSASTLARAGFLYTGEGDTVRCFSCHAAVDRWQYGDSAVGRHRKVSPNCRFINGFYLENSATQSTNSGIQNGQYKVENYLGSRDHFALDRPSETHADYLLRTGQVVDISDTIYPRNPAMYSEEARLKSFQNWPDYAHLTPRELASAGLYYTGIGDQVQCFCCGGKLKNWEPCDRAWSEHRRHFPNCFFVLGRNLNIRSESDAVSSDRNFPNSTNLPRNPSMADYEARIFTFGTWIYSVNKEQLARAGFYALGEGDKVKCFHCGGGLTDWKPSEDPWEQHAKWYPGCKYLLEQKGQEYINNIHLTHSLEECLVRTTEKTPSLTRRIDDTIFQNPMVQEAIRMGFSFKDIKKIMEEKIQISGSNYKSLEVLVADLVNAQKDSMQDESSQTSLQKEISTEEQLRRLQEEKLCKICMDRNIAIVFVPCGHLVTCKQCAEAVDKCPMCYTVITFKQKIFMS
UniProt Q62424: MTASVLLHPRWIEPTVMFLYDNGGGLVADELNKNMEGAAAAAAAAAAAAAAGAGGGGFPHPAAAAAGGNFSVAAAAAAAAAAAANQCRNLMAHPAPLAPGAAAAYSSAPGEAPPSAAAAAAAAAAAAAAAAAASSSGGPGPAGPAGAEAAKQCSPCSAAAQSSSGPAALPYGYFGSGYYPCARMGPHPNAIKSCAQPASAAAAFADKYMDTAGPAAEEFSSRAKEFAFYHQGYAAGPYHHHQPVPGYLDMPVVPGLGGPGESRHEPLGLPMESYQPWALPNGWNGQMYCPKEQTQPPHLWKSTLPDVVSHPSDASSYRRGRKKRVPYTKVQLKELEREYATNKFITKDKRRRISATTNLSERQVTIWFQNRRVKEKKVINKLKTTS

Assay [1] in a line: S. cerevisiae RM11-1a growth modifiers, primary screen, strain RM11-1a, OD600, basal, 24 h (AID 1177).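 Also: cultures grown under basal conditions with no added stressor.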 Conditions: OD600, 24 h, higher = more signal, called active from +8 up or from −8 down.
Assay [2] is described as follows: RPMI8226 myeloma cell viability, profiling panel, resazurin fluorescence, basal, 24 h, PK04 Diversity Set (AID 1180).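 Also: RPMI8826 multiple myeloma cell line at 5000 cells per well.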 Conditions: higher = more signal.
In assay [3] the target is E3 ubiquitin-protein ligase XIAP (Homo sapiens) (UniProt P98170). The assay can be described thus: XIAP binders, primary screen, biophysical, small-molecule microarray, fluorescence 635 nm (AID 1181).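 Also: score merges 667 nm emission and signal to noise over triplicate slides.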 The conditions noted are these: small-molecule microarray binding, higher = more signal.
Assay [4] relates to XIP peptide (Xip251-270) binding. The assay can be described thus: small-molecule binders of XIP peptide, primary screen, biochemical, small-molecule microarray, fluorescence 635/667 nm, 0.1 µg/mL protein (AID 1182). The conditions noted are these: fluorescent protein binding, 635 nm, higher = more signal, called active from +8 up or from −8 down.
The test system of the next assay is XIP peptide (Xip251-270). The assay can be described thus: small-molecule binders of XIP peptide, primary screen, biochemical, small-molecule microarray, fluorescence 635/667 nm, 0.5 µg/mL protein (AID 1183). The conditions noted are these: small-molecule microarray binding, fluorescence 635 nm; higher = more signal.
Assay [5] addresses Homeobox protein Hox-A13 (Mus musculus) (UniProt Q62424). Nature of the assay: inhibitors of HoxA13-DNA binding, primary screen, biochemical, fluorescence polarization, labeled oligonucleotide (AID 1185). Conditions: 15 min, higher = more signal, called active from +8 up or from −8 down. On the technique in general: Fluorescence polarisation rises when a labelled molecule tumbles more slowly, as on binding a larger partner.

Molecules are shown by their SMILES. Only a part is listed here, and it is no random draw. Some of the results follow. The source made the active and inactive calls.

`COP(=O)(/N=C1/CC(c2ccc(CO)cc2)=CC(C2CC2)N1Cc1sc2ccccc2c1Cl)OC` (stereo not given): the z-score in assay [1] was inactive: -4.46; in assay [2] it was -2.15; in assay [5] it was inactive: -1.18. Also, the composite z-score in assay [3] is 0.0847; in assay [4], inactive: 1.98; in the assay with XIP peptide (Xip251-270), -0.0195.

Consider `O=P(/N=C1/CC(c2ccc(CO)cc2)=CC(c2cccs2)N1Cc1cccc(OC(F)(F)F)c1)(Oc1ccccc1)Oc1ccccc1` (stereo not given), for which the z-score in assay [1] is inactive: 0.171; in assay [2], -1.4; in assay [5] it was inactive: -2.62. Moreover, the composite z-score in assay [3] was -0.0476; in assay [4], inactive: 1.24; with XIP peptide (Xip251-270) it was 0.542.

In the case of `COP(=O)(/N=C1/CC(c2ccc(CO)cc2)=CC(C2CC2)N1Cc1cc2c(cc1Br)OCO2)OC` (stereo not given), the z-score in assay [1] is inactive: -2.05; in assay [2], -0.508; in assay [5] it was inactive: -2.57. Also, the values for the composite z-score (in assay [3]; in assay [4]; in the assay with XIP peptide (Xip251-270)) were 0.269, inactive: 0.635 and 0.52, respectively.

As to `COP(=O)(/N=C1/CC(CCCO)=CC(c2ccc(CN3CCCC3)cc2)N1C)OC` (stereo not given), the z-score in assay [1] was inactive: -2.09; in assay [2] it was -0.174; in assay [5], inactive: -1.64. The composite z-score in assay [3] was 0.474; in assay [4] it was inactive: -0.0801; with XIP peptide (Xip251-270), -0.503.

On to `COP(=O)(/N=C1/CC(CCCO)=CC(c2cccs2)N1C)OC` (stereo not given), for which the z-score is inactive: -0.871 in assay [1], 1.4 in assay [2] and inactive: -5.98 in assay [5]. Moreover, the composite z-score in assay [3] is 0.451; in assay [4] it was inactive: 0.995; in the assay with XIP peptide (Xip251-270) it was -0.0426.

As to `O=P(/N=C1/CC(c2ccc(CO)cc2)=CC(C2CC2)N1Cc1sc2ccccc2c1Cl)(Oc1ccccc1)Oc1ccccc1` (stereo not given), the z-score in assay [1] was inactive: 0.144; in assay [2] it was -2.55; in assay [5], inactive: 0.55. The composite z-score in assay [3] is 0.344; in assay [4], inactive: 0.227; with XIP peptide (Xip251-270), 0.671.

Regarding `COP(=O)(/N=C1/CC(CCCO)=CC(C2CC2)N1Cc1cccc(OC(F)(F)F)c1)OC` (stereo not given), the results for the z-score in assay [1], in assay [2] and in assay [5] were inactive: -1.79, 0.601 and inactive: -5.34, respectively. The figures for the composite z-score (in assay [3]; in assay [4]; in the assay on XIP peptide (Xip251-270)) were 0.358, inactive: 0.494 and 0.161, respectively.

In the case of `O=P(/N=C1/CC(CCCO)=CC(C2CC2)N1Cc1cccc(OC(F)(F)F)c1)(Oc1ccccc1)Oc1ccccc1` (stereo not given), the z-score in assay [1] is inactive: 0.27; in assay [2], -0.413; in assay [5], inactive: -5.28. Further, the composite z-score in assay [3] was 0.193; in assay [4], inactive: 0.975; with XIP peptide (Xip251-270), -0.489.

For the molecule `O=P(/N=C1/CC(CCCO)=CC(c2cccs2)N1Cc1cc2c(cc1Br)OCO2)(Oc1ccccc1)Oc1ccccc1` (stereo not given), the results for the z-score in assay [1], in assay [2] and in assay [5] were inactive: 0.381, -0.0843 and inactive: -1.25, respectively. In addition, the composite z-score was 0.218 in assay [3], inactive: 1.69 in assay [4] and 0.615 in the assay on XIP peptide (Xip251-270).

`CN1/C(=N\P(=O)(Oc2ccccc2)Oc2ccccc2)CC(CCCO)=CC1c1ccc(CN2CCCC2)cc1` (stereo not given): the z-score in assay [1] was inactive: 1.25; in assay [2] it was -0.0095; in assay [5] it was inactive: -4.13. The values for the composite z-score (in assay [3]; in assay [4]; in the assay with XIP peptide (Xip251-270)) were 0.0772, inactive: 0.281 and 0.281, respectively.

Turning to `COP(=O)(/N=C1/CC(CCCO)=CC(c2ccc(CN3CCCC3)cc2)N1Cc1sc2ccccc2c1Cl)OC` (stereo not given), the z-score in assay [1] was inactive: 0.145; in assay [2] it was 0.19; in assay [5], inactive: -2.19. In addition, the composite z-score in assay [3] was 0.0108; in assay [4] it was inactive: 0.356; in the assay with XIP peptide (Xip251-270) it was 0.928.

For `O=P(/N=C1/CC(CCCO)=CC(C2CC2)N1Cc1cc2c(cc1Br)OCO2)(Oc1ccccc1)Oc1ccccc1` (stereo not given), the results for the z-score in assay [1], in assay [2] and in assay [5] were inactive: -0.11, 0.0857 and inactive: -6.42, respectively. Also, the figures for the composite z-score (in assay [3]; in assay [4]; in the assay on XIP peptide (Xip251-270)) were -0.327, inactive: 0.722 and 0.577, respectively.

Turning to `CC1C=C(CCCO)C/C(=N/P(=O)(Oc2ccccc2)Oc2ccccc2)N1Cc1cccc(OC(F)(F)F)c1` (stereo not given), the z-score was inactive: 0.311 in assay [1], -0.816 in assay [2] and inactive: -4.93 in assay [5]. In addition, the composite z-score in assay [3] was 0.133; in assay [4] it was inactive: -0.416; in the assay on XIP peptide (Xip251-270), -0.217.

As to `CN1/C(=N\P(=O)(Oc2ccccc2)Oc2ccccc2)CC(c2ccc(CO)cc2)=CC1C1CC1` (stereo not given), the z-score was inactive: -0.906 in assay [1], 0.743 in assay [2] and inactive: -4.45 in assay [5]. The values for the composite z-score (in assay [3]; in assay [4]; with XIP peptide (Xip251-270)) were 0.0156, inactive: 0.172 and 0.0274, respectively.

In the case of `O=P(/N=C1/CC(CCCO)=CC(C2CC2)N1Cc1sc2ccccc2c1Cl)(Oc1ccccc1)Oc1ccccc1` (stereo not given), the z-score is inactive: 1.08 in assay [1], -0.924 in assay [2] and inactive: -3.86 in assay [5]. Moreover, the composite z-score in assay [3] was 0.0605; in assay [4], inactive: 0.0895; with XIP peptide (Xip251-270), 0.729.
